Measured affinities in a library of Ab-14 heavy chain variants

From the AlphaSeq antibody data of Li et al. 2023 (doi:10.1038/s41467-023-39022-2), copy in the FLAb collection.

All variants were tested on one target, the spike HR2 peptide PDVDLGDISGINAS (SARS-CoV-2).

Parent scFv Ab-14: VH joined to VL by a (GGGGS)3 linker. Changes lie in the heavy chain CDRs alone.
VH: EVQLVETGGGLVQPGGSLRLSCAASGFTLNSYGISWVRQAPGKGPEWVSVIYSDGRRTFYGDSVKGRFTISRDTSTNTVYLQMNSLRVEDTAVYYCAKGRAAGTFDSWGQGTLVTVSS
VL: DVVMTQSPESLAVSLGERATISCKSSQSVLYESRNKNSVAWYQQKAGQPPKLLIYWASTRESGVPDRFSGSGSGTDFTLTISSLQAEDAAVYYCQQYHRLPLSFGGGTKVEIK

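The parent was found by panning a naive human phage display library on the peptide. These sequences belong to a second round, designed from the earlier measurements on random variants of the parent. Their group label is 14H_GP_Gen (GP: Gaussian process model; Gen: genetic algorithm; a sequence that several methods proposed may carry one label only). In AlphaSeq, yeast of one mating type display the scFv and yeast of the other type display the target. Pairs that bind mate more often; barcode pairs of the diploids are counted by sequencing. Each replicate has its own calibration line, from reference interactions of the BCL2 family. There are six technical replicates.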

The parent's heavy chain CDRs are GFTLNSYGIS, VIYSDGRRTFYGDSVK, GRAAGTFDS; each variant's own CDRs replace them letter for letter.
Values are log10 of the apparent Kd in nM; lower means stronger binding.
Averages over replicates are reported, and they cover detected replicates only.
Where no diploid with the target was found in that replicate, the entry reads "n.d.": below detection, most likely a poor binder, though not proof of it.
A sequence measured in both rounds can read differently, since the two assays cover different ranges.
The parent sequence was in this pool as ten entries: three were never detected, three once, and four in most replicates, with averages from 0.34 to 2.37.
The authors' rule: three or more of the six replicates give a measured affinity, fewer mean a poor binder.
Nonspecific signal, from three strains lacking the peptide, appeared in 1% of pairings of all heavy chain designs, centred on 2.08 (5% of these signals below 0.84); values are not corrected for it. Also given: how often the same scFv was detected with the empty control strains, with their mean in brackets.

{"CDR-H1": "GFSLNSYGIS", "CDR-H2": "VIYSDGRRTFYGDRVK", "CDR-H3": "GKTAGTFDS", "log10 Kd, replicates": "n.d. n.d. 0.86 0.94 n.d. -0.20", "mean, log10 nM": "0.53", "signal with controls": "0 of 18"}
{"CDR-H1": "GFDLNSYGIS", "CDR-H2": "VIYSDGRRTFYADKVK", "CDR-H3": "GQAAGTFDS", "log10 Kd, replicates": "1.00 0.11 -0.27 0.57 n.d. 0.72", "mean, log10 nM": "0.43", "signal with controls": "0 of 18"}
{"CDR-H1": "GFDLNSYGIS", "CDR-H2": "VIYSDGRRTFYGDSVK", "CDR-H3": "GSTAGTFDS", "log10 Kd, replicates": "0.48 -0.11 -0.10 -0.04 -0.04 0.07", "mean, log10 nM": "0.04", "signal with controls": "0 of 18"}
{"CDR-H1": "GFDLNSYGIS", "CDR-H2": "VIYSDGRRTVYGDSVK", "CDR-H3": "GQAAGTFDS", "log10 Kd, replicates": "0.37 0.48 0.46 0.27 0.89 1.14", "mean, log10 nM": "0.60", "signal with controls": "0 of 18"}
{"CDR-H1": "HFDLNSYGIS", "CDR-H2": "VIYSDGRRTFYADSVK", "CDR-H3": "GNAAGTFDS", "log10 Kd, replicates": "1.08 0.43 0.92 0.78 0.47 0.71", "mean, log10 nM": "0.73", "signal with controls": "2 of 18 (2.62)"}
{"CDR-H1": "GFELNSYGIS", "CDR-H2": "VIYADGRRTFYGDSVK", "CDR-H3": "GEAAGTFDT", "log10 Kd, replicates": "-0.06 -0.16 -0.51 -0.25 -0.29 -0.17", "mean, log10 nM": "-0.24", "signal with controls": "0 of 18"}
{"CDR-H1": "GFNLNSYGIS", "CDR-H2": "VIYSDGRRTFYADRVK", "CDR-H3": "GNAAGTFDS", "log10 Kd, replicates": "0.51 0.76 1.66 2.05 1.17 1.28", "mean, log10 nM": "1.24", "signal with controls": "0 of 18"}
{"CDR-H1": "GFWLNDYGIS", "CDR-H2": "VIYSDGRRTFYGDSVK", "CDR-H3": "GRTAGTFDA", "log10 Kd, replicates": "0.95 0.31 1.24 0.87 -0.21 1.26", "mean, log10 nM": "0.74", "signal with controls": "0 of 18"}
{"CDR-H1": "GFDLNSYGIS", "CDR-H2": "VIYSDGRRTFYGDNVK", "CDR-H3": "GEAAGTFDS", "log10 Kd, replicates": "1.30 0.02 0.80 0.17 0.15 0.16", "mean, log10 nM": "0.43", "signal with controls": "0 of 18"}
{"CDR-H1": "GFELNSYGIS", "CDR-H2": "VIYSDGQRTFYGDSVK", "CDR-H3": "GQTAGTFDS", "log10 Kd, replicates": "-0.08 0.64 1.79 -0.34 -0.01 0.70", "mean, log10 nM": "0.45", "signal with controls": "0 of 18"}
{"CDR-H1": "GFDLNSYGIS", "CDR-H2": "VIYSDGRRTFYADDVK", "CDR-H3": "GRQAGTFDS", "log10 Kd, replicates": "0.63 0.20 0.07 0.04 -0.05 0.42", "mean, log10 nM": "0.22", "signal with controls": "1 of 18 (1.92)"}
{"CDR-H1": "GFNLNSYGIS", "CDR-H2": "VIYSDGRRTFYGDMVK", "CDR-H3": "GRQAGTFDS", "log10 Kd, replicates": "n.d. n.d. n.d. n.d. n.d. n.d.", "mean, log10 nM": "n.d.", "signal with controls": "0 of 18"}
{"CDR-H1": "GFDLNSYGIS", "CDR-H2": "VIYSDGRRTFYGDAVK", "CDR-H3": "GKQAGTFDS", "log10 Kd, replicates": "0.11 0.23 0.21 0.29 -0.16 0.60", "mean, log10 nM": "0.21", "signal with controls": "1 of 18 (1.82)"}
{"CDR-H1": "GFGLNSYGIS", "CDR-H2": "VIYSDGRRTFYSDSVK", "CDR-H3": "GKTAGTFDS", "log10 Kd, replicates": "0.26 -0.03 0.11 0.11 0.41 0.07", "mean, log10 nM": "0.15", "signal with controls": "0 of 18"}
{"CDR-H1": "GFDLNSYGIS", "CDR-H2": "VIYSDGKRTFYIDSVK", "CDR-H3": "GQAAGTFDS", "log10 Kd, replicates": "-0.09 0.43 0.86 0.21 0.01 0.84", "mean, log10 nM": "0.38", "signal with controls": "2 of 18 (1.52)"}
{"CDR-H1": "GFSLNSYGIS", "CDR-H2": "VIYSDGRRTFYIDSVK", "CDR-H3": "GRNAGTFDS", "log10 Kd, replicates": "0.96 1.03 1.32 1.25 1.52 0.87", "mean, log10 nM": "1.16", "signal with controls": "0 of 18"}
{"CDR-H1": "HFDLNSYGIS", "CDR-H2": "VIYSDGRRTFYIDSVK", "CDR-H3": "GQAAGTFDS", "log10 Kd, replicates": "n.d. n.d. n.d. n.d. n.d. n.d.", "mean, log10 nM": "n.d.", "signal with controls": "0 of 18"}
{"CDR-H1": "GFQLNEYGIS", "CDR-H2": "VIYSDGRRTFYGDSVK", "CDR-H3": "GRTAGTFDG", "log10 Kd, replicates": "0.59 0.10 0.11 0.03 0.30 0.09", "mean, log10 nM": "0.20", "signal with controls": "0 of 18"}
{"CDR-H1": "GFNLNSYGIS", "CDR-H2": "VIYSDGRRTFYIDRVK", "CDR-H3": "GQAAGTFDS", "log10 Kd, replicates": "n.d. n.d. n.d. 1.55 n.d. 1.93", "mean, log10 nM": "1.74", "signal with controls": "0 of 18"}
{"CDR-H1": "GFELNEYGIS", "CDR-H2": "VIYSDGRRTFYGDSVK", "CDR-H3": "GRTAGTFWS", "log10 Kd, replicates": "n.d. 2.11 n.d. n.d. n.d. n.d.", "mean, log10 nM": "2.11", "signal with controls": "0 of 18"}
{"CDR-H1": "GFELNSYGIS", "CDR-H2": "VIYSDGRRTFYVDSVK", "CDR-H3": "GREAGTFDT", "log10 Kd, replicates": "0.32 0.42 0.63 0.32 0.27 0.58", "mean, log10 nM": "0.42", "signal with controls": "0 of 18"}

The closing 2 entries, repeated:

{"CDR-H1": "GFELNEYGIS", "CDR-H2": "VIYSDGRRTFYGDSVK", "CDR-H3": "GRTAGTFWS", "log10 Kd, replicates": "n.d. 2.11 n.d. n.d. n.d. n.d.", "mean, log10 nM": "2.11", "signal with controls": "0 of 18"}
{"CDR-H1": "GFELNSYGIS", "CDR-H2": "VIYSDGRRTFYVDSVK", "CDR-H3": "GREAGTFDT", "log10 Kd, replicates": "0.32 0.42 0.63 0.32 0.27 0.58", "mean, log10 nM": "0.42", "signal with controls": "0 of 18"}